Target: T1, autotaxin (ATX) (Homo sapiens, UniProt Q13822)
T1 construct: concentrated conditioned serum-free medium (CCM) from MDA MB-435 cells as the source of ATX; endogenous in cells; host or cells: MDA-MB-435 cells (serum-free conditioned medium, concentrated ~10 fold)
Assay: Autotaxin inactivation analysis: ATX-mediated hydrolysis of FS-3 (fluorescence), concentrated conditioned medium from MDA MB-435 cells as ATX source
Type: biochemical
Settings: FS-3 substrate
Experimental: The test protocol was as follows:
MDA-MB-435 cells were cultured at 37° C. and 5% CO2 in Dulbecco's Modified Eagle Medium (DMEM) (MediaTech, Herndon, Va.) containing 5% fetal bovine serum (Hyclone, Logan, Utah), 100 U/ml penicillin, 100 μg/ml streptomycin (Hyclone, Logan, Utah) and 292 μg/ml L-glutamine (Hyclone, Logan, Utah). Cells were grown to ˜80% confluence at which time the cells were washed twice with sterile phosphate buffered saline prior to the addition of serum free DMEM containing L-glutamine. Conditioned medium was collected after 24-30 hours, supplemented with 20% ethylene glycol and was clarified by centrifugation at 3000×g and 4° C. for 10 min. The media was concentrated ˜10 fold and buffer exchanged into Tris (50 mM, pH 7.4) containing 20% ethylene glycol using an Amicon 8050 cell fitted with a PM30 filter (MILLIPORE®, Billerica, Mass.). Aliquots of concentrated conditioned media were stored at 4° C. until needed.
ATX inhibition was assayed using FS-3 (Echelon Biosciences, Inc., Salt Lake City, Utah, USA) as a substrate and ˜10 times concentrated conditioned serum-free medium (CCM) from MDA MB-435 cells as the source of ATX. Assays were performed in 96-well plates with CCM comprising one-third of the total volume and final FS-3 and charcoal-stripped fatty acid free BSA concentrations of 1 and 30 μM in assay buffer (1 mM each CaCl2 and MgCl2, 5 mM KCl, 140 mM NaCl, 50 mM Tris pH 8.0). Fluorescence was read at 5 minute intervals by a Synergy2 system (BioTek, Winooski, Vt.) with excitation and emission wavelengths of 485 and 538 nm, respectively. […] Fluorescence readings were normalized to vehicle control after subtraction of fluorescence in the absence of CCM. Data are shown as the mean±S.D. of at least three wells.

Fluorescence (% Response) (1 uM, time 0 hour) [%] | Fluorescence (% Response) (1 uM, time 1 hour) [%] | Fluorescence (% Response) (1 uM, time 3 hours) [%] | Fluorescence (% Response) (1 uM, time 6 hours) [%] | Compound | Fluorescence (% Response) (30 uM, time 6 hours) [%]
 |  |  |  | CCCCCCCCCCCCCCCCOP(=O)(O)Oc1ccc(C(F)F)cc1 [Example 3, (16:0)-p-difluorophosphodiester] | 10.4
15.6 | 10.4 | 1.0 | 1.0 | lysophosphatidic acid [LPA, reference compound] | 

— patent publication US8022239B2, “Mechanism-based inactivators of autotaxin” (The University of Memphis Research Foundation, priority 2008, dated 2011)
